Reference: PubChem BioAssay (NCI)
Some results for these compounds are left out of this collection, so the calls shown say nothing about other tests.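 All cell lines were grown in 96-well plates and treated with compound for 48 hours. At the GI50, growth is halved.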

Assays:
NCI/ADR-RES ovarian = test: inhibition of tumour cell growth, NCI panel, 48 h
BT-549 breast = test: inhibition of tumour cell growth, NCI panel, 48 h

SMILES: CC#CC(O)(C(=O)OCC1=CCCN(C)C1)c1ccccc1 (configuration not stated)
- GI50 (NCI/ADR-RES ovarian): 23.8 µM
- GI50 (BT-549 breast): 4.41 µM
